Data from US20250114473A1, “COMPOUND FOR CONJUGATION, CONJUGATE AND PHARMACEUTICAL COMPOSITION COMPRISING THE SAME” (priority 2023, published 2025).

Assays:
Assay in all cases: Cell toxicity testing of moiety-drug conjugates (CCK-8)
Format in all cases: cell-based
Details in all cases: 0-500 nM
MDA-MB-436 (HER2−) = system: MDA-MB-436 (HER2−)
Protocol: (§1) The experiment involved optimizing seeding densities (1.5×10^3 to 1.5×10^4 cells/well) for each cell line (SK-BR-3, MCF-7, MDA-MB-231, MDA-MB-436) in 90 IL, of culture medium per well in a 96-well plate for 2-hour incubation. Next, 10 μL of a series of diluted ADC solutions (0-500 nM) were added to each well. The concentration of each ADC solution and measurements at four time points (24, 48, 72, and 96 hours) were conducted in triplicate. […] Data analysis was performed with GraphPad Prism 8.0.1, employing a four-parameter logistic curve-fit program.

MDA-MB-231 (HER2−) = system: MDA-MB-231 (HER2−)
Protocol: as §1

SK-BR-3 (HER2 3+) = system: SK-BR-3 (HER2 3+)
Protocol: as §1

MCF-7 (HER2 1+) = system: MCF-7 (HER2 1+)
Protocol: as §1

Substance	IC50 (MDA-MB-436 (HER2−)) [nM]	IC50 (MDA-MB-231 (HER2−)) [nM]	IC50 (SK-BR-3 (HER2 3+)) [nM]	IC50 (MCF-7 (HER2 1+)) [nM]
Enhertu (EU)	> 250	183	0.222	–
Kadcyla (EU) [reference compound]	47.2	81.8	0.113	27.8
